What was measured:
Assay type in all cases: binding
[1] = molecular target: S100A6 (Homo sapiens, UniProt P06703); experiment: direct fluorescence polarization (FP), S100A6; details: S100A6, 50 nM labeled foldamer, 20 mM HEPES pH 7.5, 150 mM NaCl, 1 mM CaCl2, 0.5 mM TCEP, 0.01% Tween20, quadratic fit, mean ± SEM, three technical repeats, threshold 1 mM
Protocol: HTP (and also low-throughput) measurements generally need to be validated by an orthogonal approach to eliminate experimental artifacts. […] This way, we chose WL, IF, WW, YF, IL, VL, TW, RF, RR, TI, TM, and after resynthesizing with a fluorescent label at the C-terminus (Figs. S15–S26, Table S1), the S100ome was tested against the labeled foldamers by direct fluorescence polarization (FP) (Fig. 3A). In this assay, the association of the fluorescently labeled foldamer and the S100 protein of interest is monitored, through the change in polarization of the emitted light by the fluorophore upon the binding event. In direct FP, the presence of the fluorophore might change the binding affinity of some foldamers. […] Nevertheless, we assumed that the fluorophore would affect all foldamers that target the same binding site to the same degree, because the foldamer scaffold is rigid. Defining the threshold of detection at the dissociation constant of 1 mM, we identified 87 interactions between the selected foldamer fragments and the S100ome out of 220 possible interactions (Table 1, Fig. S4-14).
S100 proteins (UniProt accession codes: S100A1: P23297, S100A2: P29034, S100A3: P33764, S100A4: P26447, S100A5: P33763, S100A6: P06703, S100A7: P31151, S100A8: P05109, S100A9: P06702, S100A10: P60903, S100A11: P31949, S100A12: P80511, S100A13: Q99584, S100A14: Q9HCY8, S100A15: Q86SG5, S100A16: Q96FQ6, S100B: P04271, S100G: P29377, S100P: P25815 and S100Z: Q8WXG8) were expressed and purified with N-terminal His6-tag as described previously. Briefly, S100 proteins were cloned into a modified pET15b vector with a TEV protease cleavable N-terminal His6-tag and expressed in Escherichia coli BL21 (DE3) cells, followed by Ni^2+-affinity chromatography. For HU assay, S100 proteins were further purified by either hydrophobic interaction chromatography or ion exchange chromatography without the cleavage of the N-terminal His6-tag applying standard conditions. For direct FP measurements, the N-terminal His6-tag was cleaved, and the S100 proteins were purified by hydrophobic interaction chromatography, ion exchange chromatography or size exclusion chromatography. The quality of the recombinant proteins was checked by SDS-PAGE analysis in all cases. The concentration of the recombinant S100 proteins was determined by UV spectrophotometry using the absorbance of Tyr and Trp residues.
In direct fluorescence polarization assays, S100 proteins were diluted in a buffer containing 50 nM labeled foldamer, 20 mM HEPES pH 7.5, 150 mM NaCl, 1 mM CaCl2, 0.5 mM TCEP and 0.01% Tween20. The dilution series (50 µl) were divided into three technical repeats and transferred (15 µl) to a 384-well microplate. In competitive fluorescence polarization assays, the buffer applied in direct measurements was supplemented with the S100 protein of interest to reach a saturation of 60–80%. This mixture was titrated with the competitor (i.e. the unlabeled peptide). Fluorescence polarization was measured in 8 different S100 concentrations (one of which contained no S100 protein) on a Synergy H4 plate reader using 485 ± 20 nm and 528 ± 20 nm band-pass filters for excitation and emission, respectively. The Kd values were obtained by fitting the data from the FP measurements with the python-based ProFit software using quadratic and competitive binding equation for direct and competitive FP, respectively. The detection threshold was based on two parameters. First, we rejected all fitted dissociation constants above 1 mM.

[2] = molecular target: T1, S100A1 (Homo sapiens, UniProt P23297); experiment: direct fluorescence polarization (FP), S100A1; details: S100A1, 50 nM labeled foldamer, 20 mM HEPES pH 7.5, 150 mM NaCl, 1 mM CaCl2, 0.5 mM TCEP, 0.01% Tween20, quadratic fit, mean ± SEM, three technical repeats, threshold 1 mM
T1 sequence (P23297 1-94): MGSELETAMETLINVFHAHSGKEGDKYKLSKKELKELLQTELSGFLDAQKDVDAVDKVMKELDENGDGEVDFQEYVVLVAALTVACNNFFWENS
Protocol: (§1) HTP (and also low-throughput) measurements generally need to be validated by an orthogonal approach to eliminate experimental artifacts. […] This way, we chose WL, IF, WW, YF, IL, VL, TW, RF, RR, TI, TM, and after resynthesizing with a fluorescent label at the C-terminus (Figs. S15–S26, Table S1), the S100ome was tested against the labeled foldamers by direct fluorescence polarization (FP) (Fig. 3A). In this assay, the association of the fluorescently labeled foldamer and the S100 protein of interest is monitored, through the change in polarization of the emitted light by the fluorophore upon the binding event. […]
(§2) S100 proteins (UniProt accession codes: S100A1: P23297, S100A2: P29034, S100A3: P33764, S100A4: P26447, S100A5: P33763, S100A6: P06703, S100A7: P31151, S100A8: P05109, S100A9: P06702, S100A10: P60903, S100A11: P31949, S100A12: P80511, S100A13: Q99584, S100A14: Q9HCY8, S100A15: Q86SG5, S100A16: Q96FQ6, S100B: P04271, S100G: P29377, S100P: P25815 and S100Z: Q8WXG8) were expressed and purified with N-terminal His6-tag as described previously. […] The concentration of the recombinant S100 proteins was determined by UV spectrophotometry using the absorbance of Tyr and Trp residues.
(§3) In direct fluorescence polarization assays, S100 proteins were diluted in a buffer containing 50 nM labeled foldamer, 20 mM HEPES pH 7.5, 150 mM NaCl, 1 mM CaCl2, 0.5 mM TCEP and 0.01% Tween20. […]

[3] = molecular target: T2, S100Z (Homo sapiens, UniProt Q8WXG8); experiment: direct fluorescence polarization (FP), S100Z; details: 50 nM labeled foldamer, 20 mM HEPES pH 7.5, 150 mM NaCl, 1 mM CaCl2, 0.5 mM TCEP, 0.01% Tween20, quadratic fit, mean ± SEM, three technical repeats, threshold 1 mM
T2 sequence (Q8WXG8 1-99): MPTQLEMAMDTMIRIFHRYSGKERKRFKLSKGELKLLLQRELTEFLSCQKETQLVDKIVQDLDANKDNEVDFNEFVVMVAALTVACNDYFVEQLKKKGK
Protocol: as §1, §2, §3

[4] = molecular target: T3, S100P (Homo sapiens, UniProt P25815); experiment: direct fluorescence polarization (FP), S100P; details: 50 nM labeled foldamer, 20 mM HEPES pH 7.5, 150 mM NaCl, 1 mM CaCl2, 0.5 mM TCEP, 0.01% Tween20, quadratic fit, mean ± SEM, three technical repeats, threshold 1 mM
T3 sequence (P25815 1-95): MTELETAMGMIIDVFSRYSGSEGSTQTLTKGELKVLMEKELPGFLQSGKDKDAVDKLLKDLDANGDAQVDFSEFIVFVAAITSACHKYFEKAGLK
Protocol: as §1, §2, §3

[5] = molecular target: S100A10 (Homo sapiens, UniProt P60903); experiment: direct fluorescence polarization (FP), S100A10; details: S100A10, 50 nM labeled foldamer, 20 mM HEPES pH 7.5, 150 mM NaCl, 1 mM CaCl2, 0.5 mM TCEP, 0.01% Tween20, quadratic fit, mean ± SEM, three technical repeats, threshold 1 mM
Protocol: as §1, §2, §3

[6] = molecular target: S100A2 (Homo sapiens, UniProt P29034); experiment: direct fluorescence polarization (FP), S100A2; details: S100A2, 50 nM labeled foldamer, 20 mM HEPES pH 7.5, 150 mM NaCl, 1 mM CaCl2, 0.5 mM TCEP, 0.01% Tween20, quadratic fit, mean ± SEM, three technical repeats, threshold 1 mM
Protocol: as §1, §2, §3

[7] = molecular target: S100A4 (Homo sapiens, UniProt P26447); experiment: direct fluorescence polarization (FP), S100A4; details: S100A4, 50 nM labeled foldamer, 20 mM HEPES pH 7.5, 150 mM NaCl, 1 mM CaCl2, 0.5 mM TCEP, 0.01% Tween20, quadratic fit, mean ± SEM, three technical repeats, threshold 1 mM
Protocol: as §1, §2, §3

| Kd [1] [µM] | SMILES | further results |
| --- | --- | --- |
| 82 ± 5.4 | CC[C@H](C)[C@@H](CC(=O)N[C@H]1CCCC[C@@H]1C(=O)N[C@H]1CCCC[C@@H]1C(=O)N[C@H](CC(=O)N[C@H]1CCCC[C@@H]1C(=O)NCC(=O)N[C@@H](CCCCNC(=O)c1ccc2c(c1)C1(OC2=O)c2ccc(O)cc2Oc2cc(O)ccc21)C(N)=O)CC(C)C)NC(=O)[C@H]1CCCC[C@@H]1N [fIL] | Kd [2]: 160 ± 24 µM |
| 290 ± 14 | N=C(N)NCCC[C@@H](CC(=O)N[C@H]1CCCC[C@@H]1C(=O)N[C@H]1CCCC[C@@H]1C(=O)N[C@H](CC(=O)N[C@H]1CCCC[C@@H]1C(=O)NCC(=O)N[C@@H](CCCCNC(=O)c1ccc2c(c1)C1(OC2=O)c2ccc(O)cc2Oc2cc(O)ccc21)C(N)=O)Cc1ccccc1)NC(=O)[C@H]1CCCC[C@@H]1N [fRF] | – |
| 160 ± 8.1 | C[C@@H](O)[C@@H](CC(=O)N[C@H]1CCCC[C@@H]1C(=O)N[C@H]1CCCC[C@@H]1C(=O)N[C@H](CC(=O)N[C@H]1CCCC[C@@H]1C(=O)NCC(=O)N[C@@H](CCCCNC(=O)c1ccc2c(c1)C1(OC2=O)c2ccc(O)cc2Oc2cc(O)ccc21)C(N)=O)Cc1c[nH]c2ccccc12)NC(=O)[C@H]1CCCC[C@@H]1N [fTW] | Kd [3]: 520 ± 59 µM; Kd [4]: 170 ± 9.8 µM; Kd [5]: 170 ± 5.6 µM; Kd [6]: 170 ± 5.5 µM |
| 170 ± 13 | CC(C)C[C@@H](CC(=O)N[C@H]1CCCC[C@@H]1C(=O)NCC(=O)N[C@@H](CCCCNC(=O)c1ccc2c(c1)C1(OC2=O)c2ccc(O)cc2Oc2cc(O)ccc21)C(N)=O)NC(=O)[C@H]1CCCC[C@@H]1NC(=O)[C@H]1CCCC[C@@H]1NC(=O)C[C@@H](NC(=O)[C@H]1CCCC[C@@H]1N)C(C)C [fVL] | – |
| – | NC(=O)[C@H](CCCCNC(=O)c1ccc2c(c1)C1(OC2=O)c2ccc(O)cc2Oc2cc(O)ccc21)NC(=O)CNC(=O)[C@H]1CCCC[C@@H]1NC(=O)C[C@H](Cc1c[nH]c2ccccc12)NC(=O)[C@H]1CCCC[C@@H]1NC(=O)[C@H]1CCCC[C@@H]1NC(=O)C[C@H](Cc1c[nH]c2ccccc12)NC(=O)[C@H]1CCCC[C@@H]1N [fWW] | Kd [7]: 160 ± 9.8 µM |

| SMILES | Kd [1] [µM] | further results |
| --- | --- | --- |
| CC[C@H](C)[C@@H](CC(=O)N[C@H]1CCCC[C@@H]1C(=O)N[C@H]1CCCC[C@@H]1C(=O)N[C@H](CC(=O)N[C@H]1CCCC[C@@H]1C(=O)NCC(=O)N[C@@H](CCCCNC(=O)c1ccc2c(c1)C1(OC2=O)c2ccc(O)cc2Oc2cc(O)ccc21)C(N)=O)Cc1ccccc1)NC(=O)[C@H]1CCCC[C@@H]1N [fIF] | 57 ± 1.8 | – |
| NC(=O)[C@H](CCCCNC(=O)c1ccc2c(c1)C1(OC2=O)c2ccc(O)cc2Oc2cc(O)ccc21)NC(=O)CNC(=O)[C@H]1CCCC[C@@H]1NC(=O)C[C@H](Cc1ccccc1)NC(=O)[C@H]1CCCC[C@@H]1NC(=O)[C@H]1CCCC[C@@H]1NC(=O)C[C@H](Cc1ccc(O)cc1)NC(=O)[C@H]1CCCC[C@@H]1N [fYF] | 42 ± 3.3 | – |

Reference: publication PMC8991199, “Promiscuity mapping of the S100 protein family using a high-throughput holdup assay” (Scientific Reports, 2022)
